This passage reports safety margin results from patent US20040248764A1 (priority 2001, published 2004).

The test system of this series is healthy vines. In words: Treatment of healthy vines with citral (safety margin). The following applies: up to 2500 ppm vs 500 ppm.

A value given as a limit tells only on which side of the number the result lay.

For the molecule `CC(C)=CCCC(C)=CC=O` [citral, 3,7-dimethyl-2,6-octadien-1-al], the safety margin was at least 5 fold.
